The target of this test is BPLF1 1–246 (Epstein-Barr virus, UniProt P03186).

The chains behind the UniProt entries cited, without tags or fusion partners. Residues count along the entry.
UniProt P03186, 1-246: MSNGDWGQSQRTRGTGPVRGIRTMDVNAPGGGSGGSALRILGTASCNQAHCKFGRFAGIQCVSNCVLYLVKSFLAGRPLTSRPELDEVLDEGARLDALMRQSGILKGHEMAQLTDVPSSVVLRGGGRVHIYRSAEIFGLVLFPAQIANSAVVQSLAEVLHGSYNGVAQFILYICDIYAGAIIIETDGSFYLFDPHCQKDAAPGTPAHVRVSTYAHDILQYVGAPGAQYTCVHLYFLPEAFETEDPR

Usually IC50 stands for the midpoint of a concentration-inhibition curve.

Take Basilen blue E-3G: the IC50 is over 10 µM.

Source of the values: paper PMC7017600 (Antiviral research, 2019).
